{"source": "paper PMC2808703", "about": "(Bioorganic & medicinal chemistry, 2009)", "origin": "cited, not measured here", "system": "mouse xenograft model of pancreatic cancer", "details": "cited from earlier work", "data": [{"smiles": "CCCCCCCCCCCCc1ccc(S(=O)(=O)Nc2nncs2)cc1", "note": "[Compound 14]", "values": [{"measurement": "Antitumor activity in vivo", "result": "significant antitumor activity with cessation of tumor growth"}]}]}
